A selection: hits, their analogues and other compounds. The true share with any hit is near 16%.
DT40 TDP1 CPT: growth inhibition of DT40 Tdp1-/-;hTDP1 cells with camptothecin (screen for TDP1 inhibitors). chicken DT40 Tdp1-/-;hTDP1 cells + 20 nM CPT, ATP luminescence, 48 h. actives 12% (n = 420,000). Potency, µM (doses to about 46.2 µM), for the others: at the highest dose activity change, negative = growth inhibition, most hits filed as inhibitors; also: potency is read from the fitted curve at half-maximal effect; % is scaled to controls: 0 for no effect and ±100 for the full control effect; nearly all actives have a fitted effect of over 55% in size
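Chicken DT40 Tdp1-/- cells stably complemented with human TDP1 were seeded at 400 cells/well in medium containing 20 nM camptothecin, exposed to pin-transferred compounds, and grown at 37 °C for at least 48 hr. Viability was read as ATP luminescence.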
TDP1 block: inhibitors of human tyrosyl-DNA phosphodiesterase TDP1. recombinant TDP1, AlphaScreen DNA substrate cleavage. AID 485290. actives 0.28% (n = 350,000). Q9NUW8. Potency, µM (titrated, usually from 130 µM), for the others: at the highest dose activity change, negative = inhibition, most hits filed as inhibitors; also: potency is read from the fitted curve at half-maximal effect; % is scaled to controls: 0 for no effect and ±100 for the full control effect; nearly all actives have a fitted effect of over 40% in size
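E. coli-derived human Tdp1, 1 nM final. Cpd preinc 15 min RT; substrate 15 nM final, 5 min RT; AS bead mix 10 ug/ml final, 10 min RT. Signal loss = tyrosine-FITC cleavage. No-enzyme wells = max signal.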
miR-21 FLuc: raises the signal of a miR-21 reporter; HeLa miR-21 FLuc reporter, luciferase, 48 h; Potency, µM (highest dose often 38.3 µM), inactives show at the highest dose reporter change, positive = more light; 340,000 tested, under 10 active; active = well fitted rising curve with a large enough effect; inconclusive = small, poorly fitted or top-dose-only effect; inactive = no such curve, though single readings can be large or run the other way;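 note: % of control where 0% means no effect; miR-21 action dims this reporter so a rising signal means less miR-21 action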
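Using DMEM plus 10% FBS, HeLa miR-21-FLuc cells are incubated with test compounds (final up to about 40uM) for 48 hours; firefly luciferase signal is then imaged following reagent-mediated lysis.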
TDP1 cell noCPT: qHTS for Inhibitors of human tyrosyl-DNA phosphodiesterase 1 (TDP1): qHTS in cells in absence of CPT. Potency, µM (titrated, usually from 46.2 µM), for the others: at the highest dose activity change, negative = growth inhibition, usual class: inhibitors. AID 686978, 2013. DT40 Tdp1-/- hTDP1 cells, no CPT, ATP luminescence, 48 h. actives 15% (n = 420,000); also: potency is read from the fitted curve at half-maximal effect; % is scaled to controls: 0 for no effect and ±100 for the full control effect; nearly all actives have a fitted effect of over 55% in size
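Compound effects on proliferation are scored in DT40 Tdp1-/-;hTDP1 cells in the absence of CPT. ATP levels (CellTiter-Glo luminescence) are recorded after a ≥48 hr, 37 °C incubation.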
uPA generation: inhibitors of cell surface uPA generation | cell surface uPA generation assay, qHTS | Potency, µM (series often up to 38.3 µM), inactives show at the highest dose activity change, negative = inhibition, actives largely listed as inhibitors | actives 0.31% (n = 330,000) | AID 540303; active = well fitted inhibition curve with a large enough effect; inconclusive = small, poorly fitted or top-dose-only effect; inactive = no such curve, though single readings can be large or run the other way; tested in mouse RAW 264.7 cells; also: potency is read from the fitted curve at half-maximal effect; % is scaled to controls: 0 for no effect and ±100 for the full control effect; nearly all actives have a fitted effect of over 55% in size
Numbers without * were called inactive; ? = inconclusive; nt = not tested or not shown; ! = not active in a repeat. Unless noted, calls follow the shape of the dose curve; as a rule, active = well fitted curve in the direction sought with a large enough effect; inconclusive = small, poorly fitted or top-dose-only effect, or another doubt; inactive = no such curve, though single readings can be large; an effect the other way counts as inactive or inconclusive.

No.	SMILES	DT40 TDP1 CPT	TDP1 block	miR-21 FLuc	TDP1 cell noCPT	uPA generation
1	CCOC(=O)c1oc2nc(CC(C)C)c3c(c2c1N)CCCC3	23.1µM*	5.5%	-0.9%	23.1µM*	3.0%
2	CCN(c1ccccc1)c1nnc(NC(=O)Nc2ccccc2F)s1	?	0.0%	1.7%	2.59µM*	nt
3	Cc1cccc(NC(=O)Nc2nnc(N(C)Cc3ccccc3)s2)c1	14.6µM*	0.0%	3.1%	?	nt
4	CCN(c1ccccc1)c1nnc(NC(=O)Nc2cccc(C(F)(F)F)c2)s1	-22.0%	14.3%	0.2%	-24.0%	nt
5	Cc1c(Cl)cccc1NC(=O)Nc1nnc(N(C)Cc2ccccc2)s1	?	2.9%	6.8%	-27.3%	nt
6	Cc1ccccc1NC(=O)Nc1nnc(N(C)Cc2ccccc2)s1	?	5.7%	-8.7%	16.4µM*	nt
7	CCN(CC(=O)Nc1ccccc1C(F)(F)F)C(=O)Cc1cccs1	2.0%	1.3%	nt	-14.5%	-9.6%
8	CCCN(CCC)CC(O)CN1C(=O)NC(C)(C)C1=O (stereo unspecified)	-2.7%	3.0%	-1.1%	-11.1%	0.2%
9	C=CCNC(=S)NNc1nc(Nc2ccccc2)nc(N2CCCCC2)n1	14.6µM*	8.6%	6.7%	8.2µM*	2.8%
10	Cc1cccc(C)c1OCC(=O)NCC1CCCO1 (stereo unspecified)	16.7%	1.8%	-5.2%	14.4%	-3.5%
11	N#Cc1c2ccccc2nc2ccccc12	5.6%	2.9%	3.0%	-6.4%	-7.4%
12	Cc1cccc2c1N(C(=O)CN1C(=O)c3ccccc3C1=O)C(C)(C)c1ssc(=S)c1-2	-11.5%	4.2%	1.2%	-11.4%	7.2%
13	Cc1cc(C)c2c(c1)-c1c(ssc1=S)C(C)(C)N2C(=O)CN1C(=O)c2ccccc2C1=O	20.6µM*	3.5%	3.2%	?	?
14	O=c1[nH]cnc2c1ncn2[C@@H]1C[C@@H](O)[C@H](CO)O1	?	nt	0.8%	-26.8%	6.7%
15	O=c1[nH]cnc2c1ncn2[C@H]1CC[C@@H](CO)O1	9.2µM*!	4.3%	-1.6%	11.6µM*!	7.1%
16	O=c1[nH]cnc2c1ncn2C1OC(CO)CC1F (stereo unspecified)	0.461µM*	nt	nt	1.84µM*	nt
17	O=C(O)c1ccc(S(=O)(=O)c2ccc([N+](=O)[O-])cc2[N+](=O)[O-])cc1	20.6µM*	nt	0.0%	?	?
18	O=C(O)c1ccc(S(=O)(=O)c2ccccc2C(=O)O)c([N+](=O)[O-])c1	12.7%	nt	-3.0%	-7.5%	-1.0%
19	COc1ccc(C(=O)N(CC2CCCO2)C(C(=O)NC2CCCC2)c2ccc(Cl)cc2)cc1OC (stereo unspecified)	?	-2.8%	0.6%	18.4µM*	1.8%
20	COc1ccc(C(C(=O)NC2CCCCC2)N(CC2CCCO2)C(=O)C2COc3ccccc3O2)cc1OC (stereo unspecified)	-26.4%	4.4%	-8.3%	?	0.2%

The last three compounds of the section above open the next one:
No.	SMILES	DT40 TDP1 CPT	TDP1 block	miR-21 FLuc	TDP1 cell noCPT	uPA generation
18	O=C(O)c1ccc(S(=O)(=O)c2ccccc2C(=O)O)c([N+](=O)[O-])c1	12.7%	nt	-3.0%	-7.5%	-1.0%
19	COc1ccc(C(=O)N(CC2CCCO2)C(C(=O)NC2CCCC2)c2ccc(Cl)cc2)cc1OC (stereo unspecified)	?	-2.8%	0.6%	18.4µM*	1.8%
20	COc1ccc(C(C(=O)NC2CCCCC2)N(CC2CCCO2)C(=O)C2COc3ccccc3O2)cc1OC (stereo unspecified)	-26.4%	4.4%	-8.3%	?	0.2%
21	CCC1(Cc2ccccc2)NC(=O)c2ccccc2O1 (stereo unspecified)	-26.5%	1.6%	0.4%	?	1.2%
22	Cc1onc(-c2ccccc2Cl)c1C(=O)Oc1cc(N)n(S(=O)(=O)c2ccc(F)cc2)n1	?	5.2%	-4.6%	?	-7.2%
23	C/C(=N/OC(=O)c1c(-c2ccccc2Cl)noc1C)c1cnccn1	-16.4%	5.4%	-0.5%	?	-7.1%
24	Cc1ccc(S(=O)(=O)n2nc(OC(=O)c3c(-c4ccccc4Cl)noc3C)cc2N)cc1	18.4µM*	1.0%	-7.4%	14.6µM*	-7.7%
25	Cc1onc(-c2ccccc2Cl)c1C(=O)Oc1cccc2cccnc12	4.11µM*	1.2%	1.3%	2.91µM*	7.1%
26	Cc1onc(-c2ccccc2Cl)c1C(=O)O/N=C(\N)c1ccc([N+](=O)[O-])o1	18.4µM*	3.8%	?	23.1µM*	4.47µM*
27	Cc1cc(C(=O)OCn2nnc3ccccc3c2=O)c(C)n1-c1ccccc1	?	8.2%	-25.3%	18.4µM*	9.2%
28	CC(=O)Nc1ccc(SCC(=O)Nc2oc(C)c3c(C)n[nH]c(=O)c23)cc1	0.8%	nt	nt	1.8%	-1.9%
29	CCOc1ccc(-n2c(C)c(C(C)=O)c3cc(O)ccc32)cc1	?	nt	13.9%	?	6.6%
30	Cc1onc(-c2ccccc2Cl)c1C(=O)OCC(=O)N1CCC(C)CC1	?	-2.4%	nt	?	2.9%
31	Cc1onc(-c2ccccc2Cl)c1C(=O)OCC(=O)N1CCN(c2ccccc2)CC1	?	0.7%	nt	16.4µM*	-1.8%
32	COc1ccccc1N1CCN(C(=O)c2c(-c3ccccc3Cl)noc2C)CC1	?	4.1%	20.8%	20.6µM*	-12.0%
33	Cc1onc(-c2ccccc2Cl)c1C(=O)OCn1nnc2ccccc2c1=O	18.4µM*	3.3%	-11.4%	15.8µM*	11.2%
34	COc1ccccc1N1CCN(C(=O)c2c(C)noc2C)CC1	3.4%	-1.3%	-1.1%	-10.8%	-1.1%
35	Cc1onc(-c2ccccc2Cl)c1C(=O)N1CCN(C/C=C/c2ccccc2)CC1	?	6.2%	6.9%	10µM*	-0.4%
36	COC(=O)NNC(=S)Nc1cc(OC)ccc1OC	-3.8%	6.0%	-0.5%	-1.2%	0.9%
37	CN1CCN(c2nc3c(c(=O)[nH]c(=O)n3C)n2CCCSc2nnnn2-c2ccccc2)CC1	?	1.2%	-5.7%	-10.6%	-4.8%
38	CCN1CCN(CCNC(=O)c2cc(Cl)c(NC(=O)C3=C(C)OCCS3)cc2OC)CC1	?	6.4%	-1.6%	4.9%	7.9%
39	O=C(c1ccc(=O)n(Cc2ccccc2)n1)N1CCN(C/C=C/c2ccccc2)CC1	18.4µM*	1.0%	23.3%	?	0.0%
40	COc1ccccc1N1CCN(C(=O)c2cc(-c3cccc(Cl)c3)on2)CC1	?	0.9%	-9.7%	12.6µM*	nt
41	CCCCNC(=O)[C@H](Cc1c[nH]c2ccccc12)NC(=O)c1ccccc1Cl	-25.5%	6.7%	3.7%	-12.0%	14.9%
42	Cn1cc(S(=O)(=O)N2CCN(Cc3ccccc3)CC2)c(=O)n(C)c1=O	4.9%	6.2%	-3.0%	?	-4.2%
43	COc1ccc(S(=O)(=O)NCCc2sc(C)nc2C)cc1	nt	1.1%	-0.1%	nt	nt
44	COC(=O)c1ccc(CSc2n[nH]c(-c3ccccc3)n2)o1	-8.0%	6.0%	-11.8%	-10.9%	7.5%
45	CCOc1ccc(CN2CCN(Cc3cc4c(cc3Cl)OCO4)CC2CCO)cc1 (stereo unspecified)	?	-2.4%	20.2%	16.4µM*	4.6%
46	COc1ccc(CN2CCN(Cc3ccc4cc(F)ccc4n3)CC2CCO)c(C)c1C (stereo unspecified)	16.4µM*	4.3%	14.9%	?	-5.8%
47	OCCC1CN(Cc2ccc3cc(Cl)ccc3n2)CCN1Cc1ccsc1 (stereo unspecified)	13µM*	5.4%	-0.1%	?	-2.6%
48	COc1ccc(CN2CCN(Cc3cccn3-c3ncccn3)CC2CCO)c(C)c1C (stereo unspecified)	?	nt	0.7%	9.2µM*	-12.5%

Record cards, as listed above. Screens in order: DT40 TDP1 CPT, TDP1 block, miR-21 FLuc, TDP1 cell noCPT, uPA generation
Shown for COc1ccccc1N1CCN(C(=O)c2cc(-c3cccc(Cl)c3)on2)CC1 : ?, 0.9%, -9.7%, 12.6µM*, nt
Shown for COc1ccc(CN2CCN(Cc3cccn3-c3ncccn3)CC2CCO)c(C)c1C (stereo unspecified) : ?, nt, 0.7%, 9.2µM*, -12.5%

Screening results from PubChem BioAssay.
